Values of other authors, collected in patent US11771709B2 (dated 2023).
Like-named read-outs stand apart in the source and are kept apart here.

Tested on: ALK positive non-small cell lung cancer
Conditions: cited from earlier work

For C[C@@H](Oc1cc(-c2cnn(C3CCNCC3)c2)cnc1N)c1c(Cl)ccc(F)c1Cl [Crizotinib], the progression free survival (ALK positive non-small cell lung cancer patients (Nishio et al, 2017)) is given as “about 10 months”, the “median progression free survival” value (Asian patients) is given as 13.6 months and the “median progression free survival” value (patients, 7.2 months with chemotherapy) is given as 9.6 months. The objective response rate (patients, 20% with chemotherapy) was 65%.
For CCc1cc2c(cc1N1CCC(N3CCOCC3)CC1)C(C)(C)c1[nH]c3cc(C#N)ccc3c1C2=O [Alectinib], the progression free survival (second line after Crizotinib resistance (Asao et al., 2017)) is listed as “up to 35 months”.
